Structures can show the parent of a compound that is named as a salt.
Each compound was assayed against 5HT1A receptor (Rattus norvegicus, UniProt P19327) (assay: "Tail-Flicks" test on rats (reduction of 8-OH-DPAT induced tail movements)). Conditions: s.c. route, tail movements induced by subcutaneous 8-OH-DPAT.
Type: in vivo

Sequences of proteins named here, by UniProt entry; tags and fusion partners are left off.
UniProt P19327, whole entry, looked up: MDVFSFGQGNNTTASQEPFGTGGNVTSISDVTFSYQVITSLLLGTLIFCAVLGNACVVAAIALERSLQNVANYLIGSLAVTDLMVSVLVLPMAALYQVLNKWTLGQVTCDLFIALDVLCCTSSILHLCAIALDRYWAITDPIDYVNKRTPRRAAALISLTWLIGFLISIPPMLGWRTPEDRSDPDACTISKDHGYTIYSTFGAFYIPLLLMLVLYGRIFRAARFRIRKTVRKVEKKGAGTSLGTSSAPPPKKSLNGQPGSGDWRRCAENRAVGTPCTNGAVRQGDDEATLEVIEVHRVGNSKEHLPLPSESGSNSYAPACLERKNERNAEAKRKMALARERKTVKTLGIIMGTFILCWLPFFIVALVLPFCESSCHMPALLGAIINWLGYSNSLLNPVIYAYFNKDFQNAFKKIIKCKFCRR

| Compound | ED50 (amount that reduces 8-OH-DPAT action by 50%) [mg/kg] |
| --- | --- |
| CCC(=O)N(C)C1CCN(CC2Cc3ccccc32)CC1 (stereo not shown) | 1.25 |
| CCC(=O)N(C)C1CCN(C2Cc3ccccc3C2)CC1 | 0.31 |
| CCCC(=O)N(C)C1CCN(CC2Cc3ccccc32)CC1 (stereo not shown) | 1.25 |
| CN(C(=O)Oc1ccccc1)C1CCN(CC2Cc3ccccc32)CC1 (stereo not shown) [Example 12, Phenyl N-[1-(benzocyclobuten-1-ylmethyl)-piperid-4-yl]-N-methylcarbamate hydrochloride] | 2.50 |
